The values that follow are results of earlier work, collected in patent publication US20210316003A1 (Immunomedics, Inc., priority 2020, published 2021).

For this data set, the system named is patients with metastatic colorectal cancer (mCRC). As to conditions: cited from earlier work.

Read-outs that look alike come from different tables or passages of the source.

For cetuximab: anti-EGFR antibody, where the note is “RAS/BRAF mutations in ctDNA”, the Overall survival is recorded as 3.1 months and the Progression-free survival is listed as 1.8 months. In addition, for the setting “without mutations”, the Overall survival is given as 9.4 months and the Progression-free survival is on record as 4.9 months.
